Values quoted from earlier work in patent US20220192984A1, “PHARMACEUTICAL COMPOSITIONS COMPRISING OTIC THERAPEUTIC AGENTS AND RELATED METHODS” (Frequency Therapeutics, Inc., priority 2018, published 2022).

Details: Table 19, remark in Human Dosage column; cited from earlier work

For `Cc1cc(C)c(CNC(=O)c2cc(Br)c3c(c2C)O[C@@](C)([C@H]2CC[C@H](N(C)C)CC2)O3)c(=O)[nH]1`, the oral bio. is listed as “poor oral”.
